Laboratory results taken from EP1025114B1, “3'-N-MODIFIED 6-O-SUBSTITUTED ERYTHROMYCIN KETOLIDE DERIVATIVES HAVING ANTIBACTERIAL ACTIVITY” (priority 1997, dated 1999).

Test system: Streptococcus Pheumoniae 5979
Test: In vitro antibacterial activity, agar dilution MIC
Format: cell-based
Conditions: Streptococcus Pheumoniae 5979 (organism code ZZ); BHI agar, 35-37 °C, 20 to 24 hours; unit assumed
Experimental: Representative compounds of the present invention were assayed in vitro for antibacterial activity as follows: Twelve petri dishes containing successive aqueous dilutions of the test compound mixed with 10 mL of sterilized Brain Heart infusion (BHI) agar (Difco 0418-01-5) were prepared. Each plate was inoculated with 1:100 (or 1:10 for slow-growing strains, such as Micrococcus and Streptococcus) dilutions of up to 32 different microorganisms, using a Steers replicator block. The inoculated plates were incubated at 35-37 °C for 20 to 24 hours. In addition, a control plate, using BHI agar containing no test compound, was prepared and incubated at the beginning and end of each test.
An additional plate containing a compound having known susceptibility patterns for the organisms being tested and belonging to the same antibiotic class as the test compound was also prepared and incubated as a further control, as well as to provide test-to-test comparability. Erythromycin A was used for this purpose.
After incubation, each plate was visually inspected. The minimum inhibitory concentration (MIC) was defined as the lowest concentration of drug yielding no growth, a slight haze, or sparsely isolated colonies on the inoculum spot as compared to the growth control.

`CC[C@H]1OC(=O)[C@H](C)[C@@H](O[C@H]2C[C@@](C)(OC)[C@@H](O)[C@H](C)O2)[C@H](C)[C@@H](O[C@@H]2O[C@H](C)C[C@H](N(C)C)[C@H]2O)[C@](C)(O)C[C@@H](C)C(=O)[C@H](C)[C@@H](O)[C@]1(C)O` [Ery. A, Erythromycin A, reference compound] gave an MIC greater than 128 µg/mL.
